A word on the Ki: it is the equilibrium dissociation constant of an inhibitor or competing ligand from its target.

Chains of the proteins cited; added tags and fusions are not shown.
UniProt P14416, whole entry: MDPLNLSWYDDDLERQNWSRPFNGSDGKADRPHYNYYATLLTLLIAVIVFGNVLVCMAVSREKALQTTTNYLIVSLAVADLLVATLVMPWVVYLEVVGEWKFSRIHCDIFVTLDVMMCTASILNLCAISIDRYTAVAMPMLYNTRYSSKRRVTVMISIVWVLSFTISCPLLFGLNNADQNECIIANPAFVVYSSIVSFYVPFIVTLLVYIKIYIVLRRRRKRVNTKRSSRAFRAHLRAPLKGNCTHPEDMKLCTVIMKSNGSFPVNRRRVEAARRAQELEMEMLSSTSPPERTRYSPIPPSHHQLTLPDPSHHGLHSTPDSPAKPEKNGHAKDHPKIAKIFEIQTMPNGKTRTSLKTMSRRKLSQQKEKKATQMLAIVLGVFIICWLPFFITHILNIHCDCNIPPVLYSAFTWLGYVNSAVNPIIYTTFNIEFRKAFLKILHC

Results on two molecules are retold here after BindingDB's records for doi:10.1016/0014-2999(93)90365-o (University of Toronto, 1993).

For the assay, the target named is D(2) dopamine receptor (Homo sapiens, UniProt P14416).

`CCCN1CCc2cccc3c2[C@H]1Cc1cccc(O)c1-3` showed a Ki of 789 nM.

Consider `CCCN1CCc2cccc3c2[C@@H]1Cc1cccc(O)c1-3` [CAS_132-66-1], for which the Ki worked out at 68 nM.
